Measurements from ChEMBL document CHEMBL4834395, “Azole-Based Indoleamine 2,3-Dioxygenase 1 (IDO1) Inhibitors” (J Med Chem, 2021).

Chains of the proteins cited; added tags and fusions are not shown.
UniProt P14902, whole entry: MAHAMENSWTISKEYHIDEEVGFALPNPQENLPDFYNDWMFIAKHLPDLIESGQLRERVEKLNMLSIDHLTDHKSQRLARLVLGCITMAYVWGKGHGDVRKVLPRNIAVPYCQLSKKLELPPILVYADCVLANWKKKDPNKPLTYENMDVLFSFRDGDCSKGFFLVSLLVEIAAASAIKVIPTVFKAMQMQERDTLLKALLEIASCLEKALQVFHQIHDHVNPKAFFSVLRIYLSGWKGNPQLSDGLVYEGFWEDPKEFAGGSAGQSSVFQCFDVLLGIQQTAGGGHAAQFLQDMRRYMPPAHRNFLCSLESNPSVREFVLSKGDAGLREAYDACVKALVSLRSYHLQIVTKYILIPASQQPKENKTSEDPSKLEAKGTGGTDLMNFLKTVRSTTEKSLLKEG

What was measured:
[1] = target: T1, Indoleamine 2,3-dioxygenase 1 (Homo sapiens, UniProt P14902); assay: Inhibition of recombinant human IDO1 expressed in Escherichia coli Rosetta (DE3) cells assessed as reduction in kynurenine production using L-tryptophan as substrate at pH 7.4 incubated for 20 mins by HPLC analysis
[2] = target: T1, Indoleamine 2,3-dioxygenase 1; assay: Inhibition of human IDO1 expressed in HEK293T cells assessed as reduction in kynurenine production using L-tryptophan as substrate incubated for 7 hrs by HPLC analysis; assay type: cell-based
[3] = target: T1, Indoleamine 2,3-dioxygenase 1; assay: Inhibition of recombinant human IDO1 expressed in Escherichia coli Rosetta (DE3) cells assessed as reduction in kynurenine production using L-tryptophan as substrate incubated for 20 mins by HPLC analysis

- IC50 [1]: 34 nM
- IC50 [2]: 110 nM
- IC50 [3]: 59 nM
Structure (SMILES): Oc1ccc(Cl)cc1-c1c[nH]nn1
